Tests used:
[1] = molecular target: FASN Keto-reductase Domain (Homo sapiens, UniProt P49327); experiment: Fatty Acid Synthase Keto-Reductase Domain (FASN KR) Inhibition; format: biochemical; details: mean where tested more than once
A2780 ovarian cells [2] = experiment: A2780 Ovarian Cell Proliferation Assay in Lipid Reduced Medium, without Palmitate; details: 96 h, MTT
A2780 ovarian cells [3] = experiment: A2780 Ovarian Cell Proliferation Assay in Lipid Reduced Medium, with Palmitate (control); details: 25 μM palmitate, 96 h, MTT
[4] = molecular target: hFASN enzyme (full length) (Homo sapiens, UniProt P49327); experiment: Fatty Acid Synthase (FASN) Inhibition Scintillation Proximity Assay; format: biochemical; details: for Human FASN pIC50 (μM): mean where tested more than once, ~ = standard error of pIC50 larger than 0.5

Sequences of proteins named here, by UniProt entry; tags and fusion partners are left off.
UniProt P49327, whole entry: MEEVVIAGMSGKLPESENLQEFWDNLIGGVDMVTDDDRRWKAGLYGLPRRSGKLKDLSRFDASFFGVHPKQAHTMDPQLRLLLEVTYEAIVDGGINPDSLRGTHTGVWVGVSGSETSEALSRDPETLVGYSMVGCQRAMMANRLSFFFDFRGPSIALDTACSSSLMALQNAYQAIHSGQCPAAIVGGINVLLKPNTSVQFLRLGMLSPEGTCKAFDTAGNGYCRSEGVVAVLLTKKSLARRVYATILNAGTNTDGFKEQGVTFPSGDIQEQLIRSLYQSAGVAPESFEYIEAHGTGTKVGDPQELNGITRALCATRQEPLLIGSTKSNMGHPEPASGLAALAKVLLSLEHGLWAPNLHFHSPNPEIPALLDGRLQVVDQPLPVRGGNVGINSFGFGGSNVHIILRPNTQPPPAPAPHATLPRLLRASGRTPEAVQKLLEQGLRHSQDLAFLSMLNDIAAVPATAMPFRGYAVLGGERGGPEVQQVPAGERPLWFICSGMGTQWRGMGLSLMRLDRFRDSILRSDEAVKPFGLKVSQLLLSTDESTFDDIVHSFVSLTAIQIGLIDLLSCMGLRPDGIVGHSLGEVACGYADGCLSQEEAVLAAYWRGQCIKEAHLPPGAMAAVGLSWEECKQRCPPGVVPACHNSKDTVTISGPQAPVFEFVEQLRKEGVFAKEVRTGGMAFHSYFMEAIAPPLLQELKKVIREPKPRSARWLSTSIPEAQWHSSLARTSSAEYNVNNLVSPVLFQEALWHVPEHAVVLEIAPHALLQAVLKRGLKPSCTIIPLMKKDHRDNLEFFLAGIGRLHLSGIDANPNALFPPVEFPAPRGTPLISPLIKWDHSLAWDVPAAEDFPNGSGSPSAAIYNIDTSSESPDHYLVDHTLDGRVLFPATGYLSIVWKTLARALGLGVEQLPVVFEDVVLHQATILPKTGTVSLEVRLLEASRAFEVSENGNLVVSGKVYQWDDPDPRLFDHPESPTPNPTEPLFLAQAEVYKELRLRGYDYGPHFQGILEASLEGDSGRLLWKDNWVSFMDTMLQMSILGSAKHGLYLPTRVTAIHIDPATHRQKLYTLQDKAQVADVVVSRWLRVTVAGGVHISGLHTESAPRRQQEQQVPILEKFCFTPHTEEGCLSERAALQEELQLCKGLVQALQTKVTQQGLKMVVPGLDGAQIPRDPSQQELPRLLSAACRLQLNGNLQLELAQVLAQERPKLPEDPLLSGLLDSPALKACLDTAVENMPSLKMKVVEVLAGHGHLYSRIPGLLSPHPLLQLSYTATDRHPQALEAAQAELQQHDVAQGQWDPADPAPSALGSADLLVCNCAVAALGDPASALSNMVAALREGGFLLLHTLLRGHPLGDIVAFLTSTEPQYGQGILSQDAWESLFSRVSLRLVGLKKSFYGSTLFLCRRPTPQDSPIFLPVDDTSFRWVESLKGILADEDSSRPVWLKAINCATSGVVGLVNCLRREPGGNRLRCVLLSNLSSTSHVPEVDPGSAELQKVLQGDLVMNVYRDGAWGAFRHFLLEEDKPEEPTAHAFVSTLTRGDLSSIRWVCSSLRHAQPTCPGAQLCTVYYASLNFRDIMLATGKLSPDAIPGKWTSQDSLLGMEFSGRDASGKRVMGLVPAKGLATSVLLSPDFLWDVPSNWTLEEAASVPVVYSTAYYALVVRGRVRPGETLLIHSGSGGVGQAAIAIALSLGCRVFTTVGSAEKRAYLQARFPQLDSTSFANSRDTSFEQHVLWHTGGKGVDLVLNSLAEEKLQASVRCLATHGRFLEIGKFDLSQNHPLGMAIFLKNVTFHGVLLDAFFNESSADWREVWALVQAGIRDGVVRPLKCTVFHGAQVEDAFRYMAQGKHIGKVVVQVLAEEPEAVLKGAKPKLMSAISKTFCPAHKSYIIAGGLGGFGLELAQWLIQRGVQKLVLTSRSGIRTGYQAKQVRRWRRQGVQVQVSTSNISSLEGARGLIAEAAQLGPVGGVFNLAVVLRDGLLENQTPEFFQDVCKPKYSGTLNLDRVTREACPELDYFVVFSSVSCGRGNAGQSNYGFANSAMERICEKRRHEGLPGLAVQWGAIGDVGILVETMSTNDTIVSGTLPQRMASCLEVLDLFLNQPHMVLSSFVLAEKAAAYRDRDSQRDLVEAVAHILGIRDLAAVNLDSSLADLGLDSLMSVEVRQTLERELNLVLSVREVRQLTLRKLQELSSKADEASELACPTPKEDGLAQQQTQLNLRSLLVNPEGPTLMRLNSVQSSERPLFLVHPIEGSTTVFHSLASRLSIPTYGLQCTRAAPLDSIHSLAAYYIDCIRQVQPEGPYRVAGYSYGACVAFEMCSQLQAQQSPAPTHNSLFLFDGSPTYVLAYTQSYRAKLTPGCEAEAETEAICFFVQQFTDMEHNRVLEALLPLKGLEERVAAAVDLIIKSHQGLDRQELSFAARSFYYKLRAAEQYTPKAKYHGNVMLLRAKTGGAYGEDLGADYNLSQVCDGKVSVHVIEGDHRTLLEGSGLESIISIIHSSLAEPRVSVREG

Row | SMILES | FASN K-R Domain pIC50 (μM) [1] [μM] | Proliferation A2780 w/o Palmitate pIC50 (μM) (A2780 ovarian cells [2]) | Proliferation A2780 with Palmitate pIC50 (μM) (A2780 ovarian cells [3]) | FASN % Effect @1E−05M [4] [%] | Human FASN pIC50 (μM) [4] [μM]
1 | Cc1ccc(C(=O)N2CCC(c3ccc(-c4cnn(C)c4)cc3)CC2)cc1NC(=O)C1CCN(CCC(C)C)CC1 | 7.33 | 7.89 | 5.13 | 113 | 7.49
2 | Cc1ccc(C(=O)N2CC(c3ccc(-c4cnn(C)c4)cc3)C2)cc1NC(=O)c1cccnc1Cl | 5.30 | 6.98 | <5 | 99 | 7.11
